Molecules are shown by their SMILES. The entries are a selection whose mix differs from that of the whole data set. Active and inactive are the calls of the source. Rule for the calls: active = hit-call score of the fitted dose curve at least 0.9, where 1 is the maximum; inactive = score below 0.9.

A short description of the assay: ATG_PPRE_CIS: Attagene CIS-FACTORIAL HepG2 Assay for human Peroxisome Proliferator-activated Response Element (PPRE) (AID 2282958). The settings on record: HepG2 PPRE cis-element reporter, Attagene transcription factor profiling; actives raise or lower the signal.
As for `Cc1cc(-c2ccc(N)c(C)c2)ccc1N`, the call was inactive.
Same read-out and setting: to `O=C(O)CF` belongs “inactive”; to `Nc1ccc([N+](=O)[O-])cc1`, “inactive”.
Regarding `CC(C)COC(=O)c1ccccc1C(=O)OCC(C)C`, the AC50 was active: 83.1 µM.
Turning to `CN(N=O)C(N)=O`, the molecule was called inactive.
On the same count and under the same terms, to `CCC1(c2ccc(N)cc2)CCC(=O)NC1=O` (stereo unspecified) belongs “inactive”; to `CCNc1nc(Cl)nc(NCC)n1`, “inactive”; to `Nc1nc(N)nc(Cl)n1`, “inactive”.
The same measure, in the same setting: then `COc1cc2c(cc1OC)[C@@]13CCN4CC5=CCO[C@H]6CC(=O)N2[C@H]1[C@H]6[C@H]5C[C@H]43`, with “inactive”.
Still for that read-out and setting: to `C=CC#N` belongs “inactive”.
As to `CN(C)N=O`, the molecule was called inactive.
Still for that read-out and setting: then `CCNc1nc(NCC)nc(SC)n1`, with “inactive”; and `O=C(O)C(Br)Br`, with “inactive”; and `CCCCCCCCBr`, with “inactive”.
On the same count and under the same terms, then `CCC(C)(C)c1ccc(O)cc1`, with “inactive”; and `NNCCO`, with “inactive”; and `O=c1[nH]c2ccccc2n1C1CCN(CCCC(c2ccc(F)cc2)c2ccc(F)cc2)CC1`, with “inactive”.
Still for that read-out and setting: to `OCC(c1ccc(Cl)cc1)c1ccc(Cl)cc1` belongs “inactive”; to `COc1ccc(C=O)cc1OC`, “inactive”; to `CCN(CC)c1ccccc1`, “inactive”.
As for `O=[N+]([O-])c1c2ccccc2cc2ccccc12`, the AC50 was active: 1.93 µM.
In the case of `Cc1ccc(N)cc1Cl`, the call was inactive.
Still for that read-out and setting: to `N#Cc1ccccn1` belongs “inactive”; to `CC(C)C1CCC(Cc2ccc(Cl)cc2)C1(O)Cn1cncn1` (stereo unspecified), “inactive”; to `CC(C)OC(=O)Nc1ccccc1`, “inactive”.
Turning to `O=[N+]([O-])c1ccc(Nc2ccccc2)cc1`, the AC50 is active: 86.3 µM.
Take `O=c1ccc(=O)[nH][nH]1`: the call was inactive.
Still for that read-out and setting: then `Nc1ccc2ccccc2c1`, with “inactive”.
For `CN1C[C@H](C(=O)N[C@]2(C)O[C@@]3(O)[C@@H]4CCCN4C(=O)[C@H](Cc4ccccc4)N3C2=O)C=C2c3cccc4[nH]cc(c34)C[C@H]21`, the AC50 was active: 14.1 µM.
Still for that read-out and setting: then `Nc1ccc(-c2ccc(N)c(Cl)c2)cc1Cl`, with active: 12.5 µM.
Consider `COc1cc(OC)c(OC)cc1C=O`, for which the result was inactive.
Turning to `BrCCCCBr`, the molecule was called inactive.
Consider `CS(=O)(=O)NC(=O)c1cc(Oc2ccc(C(F)(F)F)cc2Cl)ccc1[N+](=O)[O-]`, for which the molecule was classed as inactive.
For `CCCCCOC(=O)c1ccccc1C(=O)OCCCCC`, the molecule was called inactive.
Regarding `Oc1cc(Cl)c(Cl)cc1Cl`, the AC50 is active: 27.7 µM.
On to `C#CC1(O)CCCCC1`, for which the molecule was called inactive.

By AC50 is commonly meant the concentration giving half of the maximal activity seen.

Values taken from PubChem BioAssay (EPA / NIEHS).
